For 1 compound, Ki results are on record in ChEMBL document CHEMBL4028887, “Improvement of Cell Permeability of Human Neuronal Nitric Oxide Synthase Inhibitors Using Potent and Selective 2-Aminopyridine-Based Scaffolds with a Fluorobenzene Linker” (J Med Chem, 2017).

The test addresses T1, Nitric oxide synthase 3 (Homo sapiens, UniProt P29474).
T1 sequence (P29474 whole entry): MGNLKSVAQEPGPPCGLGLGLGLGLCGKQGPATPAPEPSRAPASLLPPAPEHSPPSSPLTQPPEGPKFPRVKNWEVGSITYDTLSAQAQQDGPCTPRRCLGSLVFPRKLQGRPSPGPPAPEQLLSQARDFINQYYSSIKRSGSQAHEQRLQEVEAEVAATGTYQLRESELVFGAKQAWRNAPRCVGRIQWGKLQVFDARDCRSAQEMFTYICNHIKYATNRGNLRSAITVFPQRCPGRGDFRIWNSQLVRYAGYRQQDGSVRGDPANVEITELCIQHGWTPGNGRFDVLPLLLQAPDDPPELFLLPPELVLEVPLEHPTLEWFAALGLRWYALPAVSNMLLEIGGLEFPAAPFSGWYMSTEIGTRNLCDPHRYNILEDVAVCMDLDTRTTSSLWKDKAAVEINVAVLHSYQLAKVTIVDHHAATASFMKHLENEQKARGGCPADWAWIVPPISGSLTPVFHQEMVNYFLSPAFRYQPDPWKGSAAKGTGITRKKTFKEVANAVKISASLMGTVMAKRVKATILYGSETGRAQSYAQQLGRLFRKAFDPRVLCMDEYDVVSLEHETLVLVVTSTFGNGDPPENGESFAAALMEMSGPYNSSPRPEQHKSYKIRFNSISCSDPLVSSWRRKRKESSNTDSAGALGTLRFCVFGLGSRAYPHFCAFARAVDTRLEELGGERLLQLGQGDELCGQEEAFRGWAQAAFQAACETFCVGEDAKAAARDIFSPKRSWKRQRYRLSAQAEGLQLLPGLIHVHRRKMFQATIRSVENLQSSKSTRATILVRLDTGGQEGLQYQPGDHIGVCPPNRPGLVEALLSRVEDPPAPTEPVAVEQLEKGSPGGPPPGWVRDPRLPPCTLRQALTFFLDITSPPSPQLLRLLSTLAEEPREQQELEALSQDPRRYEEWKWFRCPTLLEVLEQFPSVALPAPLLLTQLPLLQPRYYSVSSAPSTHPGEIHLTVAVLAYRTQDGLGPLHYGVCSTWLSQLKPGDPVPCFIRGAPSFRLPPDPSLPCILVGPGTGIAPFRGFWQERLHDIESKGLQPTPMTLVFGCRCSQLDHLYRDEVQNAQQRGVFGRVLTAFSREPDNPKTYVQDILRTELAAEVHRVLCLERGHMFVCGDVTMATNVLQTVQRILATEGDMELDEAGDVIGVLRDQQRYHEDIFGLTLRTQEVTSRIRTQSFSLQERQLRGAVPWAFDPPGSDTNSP
The class given is ADME.

pKi: −log10 of the molar value.

As usually defined, the pKi is −log10 of the Ki, conventionally taken in molar units. A high value points to a small Ki. Take `CNCc1ccc(-c2cncc(CCc3cc(C)cc(N)n3)c2)cc1`: the pKi is 4.16.
